Source: BindingDB's records for 25268943

Chains of the proteins cited; added tags and fusions are not shown. Lines headed by an entry give the natural chain unless they say otherwise; changes in a name come on top.
UniProt P41145: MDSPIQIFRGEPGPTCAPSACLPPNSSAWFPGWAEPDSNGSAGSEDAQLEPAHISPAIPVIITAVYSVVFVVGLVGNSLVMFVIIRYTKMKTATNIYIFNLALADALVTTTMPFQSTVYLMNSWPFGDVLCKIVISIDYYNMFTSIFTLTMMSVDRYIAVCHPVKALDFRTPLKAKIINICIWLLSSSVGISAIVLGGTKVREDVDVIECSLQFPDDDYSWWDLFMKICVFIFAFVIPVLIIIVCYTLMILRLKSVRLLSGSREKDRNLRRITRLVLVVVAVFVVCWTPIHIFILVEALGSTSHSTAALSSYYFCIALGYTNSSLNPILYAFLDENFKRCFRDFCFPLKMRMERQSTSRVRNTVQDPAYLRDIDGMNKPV
UniProt P35372, whole entry, looked up: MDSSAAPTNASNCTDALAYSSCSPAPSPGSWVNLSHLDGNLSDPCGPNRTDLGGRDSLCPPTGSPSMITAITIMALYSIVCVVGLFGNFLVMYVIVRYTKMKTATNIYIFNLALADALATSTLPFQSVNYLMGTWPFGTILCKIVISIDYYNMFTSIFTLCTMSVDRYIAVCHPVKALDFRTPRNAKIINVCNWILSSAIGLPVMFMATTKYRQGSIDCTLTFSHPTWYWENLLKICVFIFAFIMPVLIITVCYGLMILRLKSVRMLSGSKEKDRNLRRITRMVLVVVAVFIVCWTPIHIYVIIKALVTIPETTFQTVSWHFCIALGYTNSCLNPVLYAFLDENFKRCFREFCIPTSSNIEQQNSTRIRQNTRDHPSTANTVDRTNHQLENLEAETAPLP
UniProt P41143, whole entry, looked up: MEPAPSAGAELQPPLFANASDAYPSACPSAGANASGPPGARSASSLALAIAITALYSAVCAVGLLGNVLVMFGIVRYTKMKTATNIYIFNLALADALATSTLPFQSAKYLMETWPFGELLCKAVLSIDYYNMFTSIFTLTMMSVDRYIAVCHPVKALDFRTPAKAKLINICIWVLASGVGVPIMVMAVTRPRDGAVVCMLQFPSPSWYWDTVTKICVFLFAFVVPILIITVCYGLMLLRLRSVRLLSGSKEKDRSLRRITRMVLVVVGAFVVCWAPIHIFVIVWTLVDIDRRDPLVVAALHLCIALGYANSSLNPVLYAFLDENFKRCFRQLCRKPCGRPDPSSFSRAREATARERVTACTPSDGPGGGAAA

How the values were obtained:
[1] = target: Kappa-type opioid receptor (Homo sapiens, UniProt P41145); assay: Displacement of [3H]U-69593 from human KOR expressed in HEK293 cells after 60 mins by scintillation counting analysis
[2] = target: Mu-type opioid receptor (Homo sapiens, UniProt P35372); assay: Displacement of [3H]DAMGO from human MOR expressed in HEK293 cells after 60 mins by scintillation counting analysis
[3] = target: Delta-type opioid receptor (Homo sapiens, UniProt P41143)

SMILES	Ki [1]	Ki [2]	Ki [3]
N=C(N)NCC(=O)NCC1(Cc2cccc3ccccc23)CCN(Cc2ccccc2)CC1	1.47 µM	> 5 µM	–
N=C(N)NCC(=O)NCC1(Cc2ccccc2)CCN(Cc2ccccc2)CC1	4.25 µM	> 5 µM	> 5 µM
